# Apparent affinities of Ab-14 variants for a coronavirus HR2 peptide

Values reported by Engelhart et al. 2022, doi:10.1038/s41597-022-01779-4 (FLAb copy).

All variants were tested on one target, the spike HR2 peptide PDVDLGDISGINAS (SARS-CoV-2).

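The starting antibody came from a phage panning campaign against this peptide. Variants in AAYL50 differ from the parent at up to three CDR positions; double and triple changes were sampled at random. Affinity was read by AlphaSeq, a pooled yeast mating assay with surface-displayed partners. Mating (16 h, 30 °C) was followed by selection of diploids and sequencing of their barcodes. A regression on co-assayed BCL2-family reference pairs converts the normalised counts of each replicate to an apparent Kd. The assay was run in three technical replicates.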

The variants keep the heavy chain, the linker and the frameworks of Ab-14 (scFv order VH, three GGGGS repeats, VL).
VH: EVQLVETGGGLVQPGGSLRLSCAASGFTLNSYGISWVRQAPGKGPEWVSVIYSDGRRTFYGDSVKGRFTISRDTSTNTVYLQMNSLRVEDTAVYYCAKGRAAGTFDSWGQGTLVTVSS
VL: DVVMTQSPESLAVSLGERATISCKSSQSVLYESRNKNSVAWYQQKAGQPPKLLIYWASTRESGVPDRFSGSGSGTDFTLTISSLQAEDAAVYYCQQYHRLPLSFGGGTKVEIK

Each variant is given by its three light chain CDRs, as the data file delimits them; those of the parent are KSSQSVLYESRNKNSVA, WASTRES, QQYHRLPLS. The read-out is the apparent dissociation constant on a log10 scale (nM): the lower, the stronger. Replicates are averaged; those with no signal do not enter the mean. "n.d." means that the variant was in the library but no mating with the target was seen in that replicate; the authors take this as a sign of poor binding, and no number exists. Parent in this assay: reference entry 0.65, copy in this library 1.68. Three control strains display no target. For library AAYL50, 18% of the pairings with them gave a signal, with a median of 4.19 and one signal in twenty below 2.99, so weak values seen in few replicates may be background. Also given: how often the same scFv was detected with the empty control strains, with their mean in brackets.

CDR-L1	CDR-L2	CDR-L3	log10 Kd, replicates	mean, log10 nM	empty controls
KSSQSVLYESRNKNSHA	WASTDLS	QQYHRLPLS	n.d. / n.d. / n.d.	n.d.	3/9 (3.46)
DSSQSVLKESRNKNSVA	WASTRES	QQCHRLPLS	n.d. / 3.16 / 5.88	4.52	3/9 (3.72)
KSNQSVLYMSRNKNSVA	WASTTES	QQYHRLPLS	n.d. / n.d. / n.d.	n.d.	3/9 (4.78)
KSSQSVLYEIRNKNSVA	DASTRES	QQYHRKPLS	4.48 / n.d. / n.d.	4.48	1/9 (4.13)
KSSQSVLYESGNKNGVA	WASTRES	QQRHRLPLS	n.d. / n.d. / n.d.	n.d.	0/9
KSSQSLLYESRNKNSVA	WASTRES	QFPHRLPLS	n.d. / n.d. / n.d.	n.d.	2/9 (4.54)
DSSQSGLYESRNKNSVA	WASTRES	QQYHILPLS	2.53 / n.d. / 3.44	2.99	0/9
KSSQSVLYESRNKNSVA	WASTRES	QSYHRLPLS	1.55 / 1.66 / 1.78	1.67	1/9 (3.10)
KSSQSVLYESRNKNSVA	WASTRES	QQYHRSPLS	n.d. / 1.27 / 1.61	1.44	0/9
KSCQSVLYESRNKNAVA	WLSTRES	QQYHRLPLS	3.14 / 4.56 / 4.79	4.17	2/9 (4.25)
KSYQSVLYESRTKNSVA	WASTRES	QNYHRLPLS	n.d. / n.d. / n.d.	n.d.	0/9
KCSQSVLYESRNKNSNI	WASTRES	QQYHRLPLS	n.d. / n.d. / n.d.	n.d.	0/9
KSSQSVLYESRNKNSVA	WASTRES	SQYTRLPLS	3.07 / 5.42 / 4.24	4.24	1/9 (3.99)
KSSQSVLYVSRNKNSVA	WASTRES	QHYHRRPLS	n.d. / n.d. / n.d.	n.d.	0/9
CSSHSVLYESRNKNQVA	WASTRES	QQYHRLPLS	n.d. / n.d. / n.d.	n.d.	0/9
KSSQSVLYNSRNKISVA	WASTRLS	QQYHRLPLS	n.d. / 3.06 / 3.23	3.15	1/9 (3.55)
KSSQSVLYESDNKNSVA	WASTRKS	QQYYRLPLS	0.70 / 1.03 / 0.81	0.85	1/9 (3.80)
KSSQSDLYESRNKNSVA	WASTLES	QQYPRLPLS	n.d. / n.d. / n.d.	n.d.	0/9
KSSQSPLYESRNKNSVA	RASTRES	QQYHRLPLI	0.64 / 0.89 / 0.78	0.77	3/9 (4.86)
KSSQSVLYTSRVKNSVA	WASTRES	QQYCRLPLS	2.90 / 2.67 / 4.15	3.24	0/9
KSSQSVLYESRNKNSVA	WASTRES	PQYHLLCLS	n.d. / n.d. / n.d.	n.d.	0/9
LSSQSVLYEVRNKNSVA	WASTAES	QQYHRLPLS	n.d. / n.d. / n.d.	n.d.	0/9
KSSQSVLQEKRNKNSVA	WASTRES	QQYGRLPLS	n.d. / n.d. / n.d.	n.d.	0/9
KSYQSVLRESRNKNSVA	WASTRES	QQYHRLPLS	n.d. / n.d. / n.d.	n.d.	1/9 (3.40)
KSSYSVLYESRNKNSVA	WASQRES	EQYHRLPLS	1.77 / 1.63 / 1.59	1.66	1/9 (3.90)
KYSQSVLYESRNKNSVA	WASTRES	QQYHRLKLS	n.d. / n.d. / n.d.	n.d.	0/9
VSSQNVQYESRNKNSVA	WASTRES	QQYHRLPLS	n.d. / n.d. / n.d.	n.d.	0/9
KSSQSVLYESRDKNSVA	WPSTRDS	QQYHRLPLS	0.79 / 1.37 / 0.99	1.05	2/9 (4.26)
KSSQSVLYESRQKNSVA	AASTRES	QQYHFLPLS	0.51 / 0.82 / 0.73	0.69	1/9 (3.77)
KSSQSVLYESRNKNSVP	WASTRES	QQYHRLVNS	n.d. / n.d. / n.d.	n.d.	0/9
KGSQSVLYASRNKNSVA	WASTRES	QQYHCLPLS	n.d. / n.d. / n.d.	n.d.	0/9
KSSRSVLYESRNKNSVA	WASTRES	QQYHRVPLA	0.98 / 1.21 / 1.12	1.10	1/9 (5.14)
ESSQSVLKESRNKNSVA	WASTREL	QQYHRLPLS	2.99 / 2.07 / 2.66	2.57	3/9 (3.25)
KSSQSVLYENRNKNSVA	WASTRES	IQYHRLDLS	5.23 / n.d. / n.d.	5.23	3/9 (4.90)
YSSQSVLYESRNYNSVA	WASTRES	QQYHRMPLS	3.03 / 2.85 / 2.22	2.70	0/9
KYSESVLYESRNKNSVA	WASTRFS	QQYHRLPLS	1.41 / 1.49 / 1.34	1.41	1/9 (4.41)
KSSQSVFYESYNKNSVA	WASTRES	QQYHNLPLS	1.07 / 1.07 / 0.79	0.98	0/9
KSSQQVLYWSRNKNCVA	WASTRES	QQYHRLPLS	n.d. / n.d. / n.d.	n.d.	0/9
KSSQSVLYESRNKPSVA	KASTEES	QQYHRLPLS	n.d. / n.d. / 4.22	4.22	1/9 (3.91)
KSSQSVLYESRNKKSVA	WASTFES	QDYHRLPLS	n.d. / 3.69 / n.d.	3.69	1/9 (3.17)
KSSQSVLYESRNKNSVA	WATTRES	QQYLRLPLE	3.38 / 3.44 / n.d.	3.41	0/9
KSSQSVLYESREKNSVA	HASTCES	QQYHRLPLS	n.d. / n.d. / n.d.	n.d.	1/9 (4.92)
KSSQSVLYESRNKNSVI	GASTRES	QQYFRLPLS	n.d. / 5.21 / 4.41	4.81	2/9 (3.63)
KSSQSRLYESRNTNSVA	WASTRES	QQYHRLPLA	1.68 / 1.54 / 2.35	1.86	0/9
KSSQSVLYESRNKNYYA	WASTAES	QQYHRLPLS	n.d. / 4.10 / n.d.	4.10	0/9
KSSQSVLYESRNKNSVA	WISTRES	QQGHRLPDS	4.30 / 3.10 / n.d.	3.70	2/9 (4.45)
KSSQSVLYESRNKNSVA	WASSRES	QLYHRLPLS	n.d. / n.d. / n.d.	n.d.	1/9 (3.04)
KHSTSVLYESRNKNSVA	WASTRES	QQYTRLPLS	0.78 / 1.14 / 1.01	0.97	5/9 (4.91)
KQSQSDLYQSRNKNSVA	WASTRES	QQYHRLPLS	0.82 / 0.99 / 0.98	0.93	5/9 (4.93)
KSSQSVLYESRNKNAVC	WASTRES	QQYHRLPLS	n.d. / 1.56 / 1.19	1.37	0/9
KSSQSVLYESRNKIQVA	WASTREV	QQYHRLPLS	n.d. / 4.85 / n.d.	4.85	1/9 (3.17)
KSSQSVLYESRNKNSAA	WASTQES	QQYHREPLS	5.07 / n.d. / 5.78	5.43	1/9 (4.77)

The first 5 variants above that were never detected:

CDR-L1,CDR-L2,CDR-L3,"log10 Kd, replicates","mean, log10 nM",empty controls
KSSQSVLYESRNKNSHA,WASTDLS,QQYHRLPLS,n.d. / n.d. / n.d.,n.d.,3/9 (3.46)
KSNQSVLYMSRNKNSVA,WASTTES,QQYHRLPLS,n.d. / n.d. / n.d.,n.d.,3/9 (4.78)
KSSQSVLYESGNKNGVA,WASTRES,QQRHRLPLS,n.d. / n.d. / n.d.,n.d.,0/9
KSSQSLLYESRNKNSVA,WASTRES,QFPHRLPLS,n.d. / n.d. / n.d.,n.d.,2/9 (4.54)
KSYQSVLYESRTKNSVA,WASTRES,QNYHRLPLS,n.d. / n.d. / n.d.,n.d.,0/9